Measurements taken from patent US20230310438A1 (priority 2019, published 2023).

Tested on: Balb/c mice
Settings: after two vaccinations; adjuvant and F1-CRM antigen adsorbed to alum

Question: With `CCCCCCCCCCC[C@H](CC(=O)NCCO[C@@H]1OC(CO)[C@@H](OS(=O)(=O)O)C(NC(=O)C[C@@H](CCCCCCCCCCC)OC(=O)CCCCCCCCC)C1NC(=O)C[C@@H](CCCCCCCCCCC)OC(=O)CCCCCCCCC)OC(=O)CCCCCCCCC` (stereo partly shown) as the molecule, how does the anti-fentanyl antibody titers read?
Answer: dose responsive increase
